Laboratory results reported in patent US20240358847A1, “TROP2 BINDERS AND CONJUGATES THEREOF” (MERCK SHARP & DOHME LLC, priority 2023, published 2024).

Assay: Rat PK of αTROP2 MMAE ADC (tAb, cAb, released MMAE)
Assay type: in vivo
Settings: male Wistar Hannover rats, 5 mg/kg IV

B1: ADC 1: αTROP2 (HC:BSM-YTE-S375C) (LC:BSM-Y53D) conjugated to MP-AA-PABC-MMAE (conjugate)
heavy: QVQLLQSGSELKKPGASVKVSCKASGYTFTNYGMNWVRQAPGQGLKWMGWINTYTGEPTYTDDFKGRFSFSLDTSVSQAYLQISSLKAEDTAVYYCARGGFGSSYWYFDVWGQGTLVTVSSASTKGPSVFPLAPSSKSTSGGTAALGCLVKDYFPEPVTVSWNSGALTSGVHTFPAVLQSSGLYSLSSVVTVPSSSLGTQTYICNVNHKPSNTKVDKKVEPKSCDKTHTCPPCPAPELLGGPSVFLFPPKPKDTLYITREPEVTCVVVDVSHEDPEVKFNWYVDGVEVHNAKTKPREEQYNSTYRVVSVLTVLHQDWLNGKEYKCKVSNKALPAPIEKTISKAKGQPREPQVYTLPPSRDELTKNQVSLTCLVKGFYPCDIAVEWESNGQPENNYKTTPPVLDSDGSFFLYSKLTVDKSRWQQGNVFSCSVMHEALHNHYTQKSLSLSPGK
light: DIQLTQSPSSLSASVGDRVTITCKASQDVSIAVAWYQQKPGKAPKLLIYSASDRYTGVPSRFSGSGSGTDFTLTISSLQPEDFATYYCQQHYITPLTFGPGTKVEIKRTVAAPSVFIFPPSDEQLKSGTASVVCLLNNFYPREAKVQWKVDNALQSGNSQESVTEQDSKDSTYSLSSTLTLSKADYEKHKVYACEVTHQGLSSPVTKSFNRGEC
Q: For B1, which terminal half-life is on record?
A: Its terminal half-life is 238 h.
